Patent US7015211B2 (Yale University, priority 2003, dated 2006)

The chains behind the UniProt entries cited, without tags or fusion partners.
UniProt P06211, whole entry: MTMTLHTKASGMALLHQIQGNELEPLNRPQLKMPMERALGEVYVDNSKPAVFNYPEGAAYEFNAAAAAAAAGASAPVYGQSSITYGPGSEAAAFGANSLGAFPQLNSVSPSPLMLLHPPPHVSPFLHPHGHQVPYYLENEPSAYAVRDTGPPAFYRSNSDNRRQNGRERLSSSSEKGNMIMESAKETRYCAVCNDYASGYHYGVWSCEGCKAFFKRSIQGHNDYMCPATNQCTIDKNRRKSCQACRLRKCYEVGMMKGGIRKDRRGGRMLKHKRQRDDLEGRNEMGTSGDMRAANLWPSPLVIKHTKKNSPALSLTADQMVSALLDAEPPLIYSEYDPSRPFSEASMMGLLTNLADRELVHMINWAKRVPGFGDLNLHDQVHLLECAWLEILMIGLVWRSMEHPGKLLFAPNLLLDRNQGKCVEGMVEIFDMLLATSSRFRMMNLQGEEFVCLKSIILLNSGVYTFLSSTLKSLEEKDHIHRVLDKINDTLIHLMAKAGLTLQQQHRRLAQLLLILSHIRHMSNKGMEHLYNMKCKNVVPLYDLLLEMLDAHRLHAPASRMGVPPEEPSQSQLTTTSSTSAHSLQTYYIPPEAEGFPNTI

Target: ER (ERα) in uterine cytosol (Rattus norvegicus, UniProt P06211)
Conditions: relative binding affinity, E2 = 100, 1 nM [3H]E2, ± SD

**Q.** For “2′-Fluoroethyl(3,17β-dihydroxyestra-1,3,5(10)-trien-15α-yl)formate [E15-1,2F1]”, which “Estrogen Receptor (RBA)” value is on record?
**A.** The value was 8 ± 3.
